# Assay results published in patent publication US8569379B2, “Use of rasagiline for the treatment of olfactory dysfunction” (Teva Pharmaceutical Industries Ltd., priority 2010, dated 2013).
# Test system: alpha-synuclein over-expressing (mutants) mice (Thy1-aSyn)
# Conditions: α-syn mutants receiving rasagiline; group mean, n = 19
# Description: Transgenic mice overexpressing alpha-synuclein under the Thy1 promoter (Thy1-aSyn) have high levels of alpha-synuclein expression throughout the brain but no loss of nigrostriatal dopamine neurons up to 8 months. […] Overexpression of alpha-synuclein is sufficient to cause olfactory deficits in mice similar to that observed in patients with PD (2).
# The time periods that mice spent sniffing lemon and lime were compared. The testing parameters were percentage of time of sniffing lemon out of total time of sniffing and percentage of time of sniffing lime out of total time of sniffing.
smiles,measurement,value
"C#CCN[C@@H]1CCc2ccccc21 [Rasagiline, R(+)-N-propargyl-1-aminoindan]",% Time sniffing Lemon,47.4%
